pEC50: −log10 of the molar value.

In this experiment the target is α7GlyR chimeric channels with G175K and A298G mutations (Homo sapiens, UniProt Z9PBR2L694). Conditions: read-out: Agonist potency.

With `c1cnc2cc3c(cc2n1)C1CNCC3C1`, the pEC50 is < 4.52.

The values above are taken from patent US11124554B2, “Modified ligand-gated ion channels and methods of use” (Howard Hughes Medical Institute, priority 2016, dated 2021).
